Earlier results in PMC8125740.

What was measured:
[1] = target: NMDA receptor NR1 subunit C0 region (Homo sapiens) (UniProt Q05586)
[2] = target: NMDA receptor NR1 subunit C1 exon (Homo sapiens) (UniProt Q05586)
[3] = target: Amyloid beta(25-35) 25-35 (Homo sapiens) (UniProt P05067)
[4] = target: Amyloid beta(1-42) 1-42 (Homo sapiens) (UniProt P05067)

Question: With Calmodulin (from UniProt P0DP23) as the substance, how does the Kd [1] read?
Answer: 87 nM

Question: And the Kd [2]?
Answer: 4 nM

Question: And the Kd [3]?
Answer: 1 nM

Question: What about the Kd [4] of the same substance?
Answer: 1 nM
